Results as given in patent US4698306A, “Process for producing peroxidase” (Takara Shuzo Co., Ltd., priority 1984, dated 1987).

Amino acid sequences for entries named in this document (tags omitted). Residues count along the entry.
UniProt P28314, 21-363 limits assumed: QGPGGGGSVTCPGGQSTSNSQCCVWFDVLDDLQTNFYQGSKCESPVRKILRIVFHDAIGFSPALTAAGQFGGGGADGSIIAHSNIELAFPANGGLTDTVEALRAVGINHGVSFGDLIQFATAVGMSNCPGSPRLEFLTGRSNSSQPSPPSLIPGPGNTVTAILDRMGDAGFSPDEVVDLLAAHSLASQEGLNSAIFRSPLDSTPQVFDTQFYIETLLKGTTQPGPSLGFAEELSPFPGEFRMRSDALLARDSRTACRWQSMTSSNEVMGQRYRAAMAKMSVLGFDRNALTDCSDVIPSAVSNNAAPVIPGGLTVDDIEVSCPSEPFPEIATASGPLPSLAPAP

Target: peroxidase (Coprinopsis cinerea, UniProt P28314)
Assay: Effects of inhibitors, metal ions and metal chelating agents on peroxidase activity
Format: biochemical, Coprinus macrorhizus K-1330
Settings: additive 1 mM; no addition = 100

Compound	Relative activity
[N-]=[N+]=[N-] [Sodium azide]	52%
Sodium sulfide	82%
